{"source": "patent US20230124634A1", "about": "“ANTIBACTERIAL COMPOSITION” (CONOPCO, INC., D/B/A UNILEVER, priority 2020, published 2023)", "origin": "cited, not measured here", "conditions": "cited from earlier work"}
{"substance": "Silver oxide", "values": [{"measurement": "Ksp (mol/L in water at 25° C.)", "result": "2.1e-08", "unit": "mol/L"}]}
{"substance": "Silver salicylate", "values": [{"measurement": "Ksp (mol/L in water at 25° C.)", "result": "1.5e-05", "unit": "mol/L"}]}
